In PubChem BioAssay AID588674 (Broad Institute, 2011):
Only a part is listed here, and it is no random draw. The source made the active and inactive calls.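 The calls were made as follows: active = mean inhibition of at least 75% with every replicate also reaching 75%; inconclusive = mean inhibition at least 75% but some replicate below; inactive = mean inhibition below 75%.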

Assay: reduction of Shn3 3'UTR firefly luciferase signal, primary screen, Schnurri-3 inhibitor project, cell-based, Clone20 osteoblasts, set 2 (AID 588674);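 also: 0% = median of neutral control wells and 100% = pilot-screen positive control compound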
Conditions: Clone20 osteoblast Shn3 3'UTR firefly luciferase, 24 h; at 12.5 µM; stronger effect = higher value

Compound | inhibition
O=P1(N(CCCl)CCCl)OCCCS1 (stereo not drawn) | inactive: 5.44%
O=C(Nc1cc([As](=O)(O)O)ccc1O)c1ccccc1 | inactive: 3.91%
O=[N+]([O-])c1ncn(CCn2ncnc2[N+](=O)[O-])n1 | inactive: 13%
CC(C)(C)C(=O)NC(Sc1ccncn1)C(Cl)(Cl)Cl (stereo not drawn) | inactive: -14.3%
O=C(O)CNc1ccc([As](=O)(O)O)cc1 | inactive: 11.5%
O=[N+]([O-])c1cccc(NC2=NCC(CBr)S2)c1 (stereo not drawn) | inactive: -6.93%
COC(=O)C1(C)COP(=O)(Nc2ccccc2)OC1 (stereo not drawn) | inactive: -13.4%
COc1ccc(C2=NCC(CBr)S2)cc1 (stereo not drawn) | inactive: 4.88%
O=[N+]([O-])c1cc([N+](=O)[O-])c(CCNc2ccccc2)c([N+](=O)[O-])c1 | inactive: -13.1%
Cc1ccc(NP(=O)(Oc2ccccc2)Oc2ccccc2)nc1 | inactive: -8.56%
CC(=O)N1C2C3N(C(C)=O)C1C1N(C(C)=O)C(C(N1C(C)=O)N3C(C)=O)N2C(C)=O | inactive: -7.83%
O=[N+]([O-])c1cccc2n[nH]nc12 | inactive: -7.64%
CCN(/C(=N/P(=O)(N1CCOCC1)N1CCOCC1)N1CCOCC1)c1ccc(OC)cc1 | inactive: 10.7%
C[N+]1=C2C=CC=CC=C2SC12C([N+](=O)[O-])=CC([N+](=O)[O-])=C[C-]2[N+](=O)[O-] (stereo not drawn) | inactive: 12.1%
Nc1ccc([As](=O)(O)c2ccc(N)cc2)cc1 | inactive: -2.84%
c1cc(-c2nn[nH]n2)ccc1-c1nn[nH]n1 | inactive: 1.71%
CC1CCN(C(=O)Oc2c(Cl)cc(Cl)c3cccnc23)CC1 | inactive: 3.3%
CN(C)C(=O)OCCc1n(C)cc[n+]1C | inactive: -15.1%
CC(C)=N/N=C(\N)N[N+](=O)[O-] | inactive: -11.9%
CC(C)c1nc(Nc2ccccc2)n(P(=O)(N(C)C)N(C)C)n1 | inactive: 6.26%
Cc1ccc(N/C(=N/P(=O)(N2CCOCC2)N2CCOCC2)N2CCOCC2)cc1 | inactive: -7.09%
CN(C(=O)Cc1ccc(Cl)c(Cl)c1)[C@H]1CCCC[C@H]1N1CCCC1 | inactive: -5.21%
NC(=O)c1cc([N+](=O)[O-])cc([N+](=O)[O-])c1N | inactive: 10.7%
Clc1ccc(Cl)c(NC2=NCC(CBr)S2)c1 (stereo not drawn) | inactive: -5.52%
CN1CCCC(OC(=O)C(c2ccccc2)c2ccccc2)C1 (stereo not drawn) | inactive: 2.82%
Cc1ccc(OP(=O)(Nc2nccs2)Oc2ccc(C)cc2)cc1 | inactive: 5.21%

Compound | inhibition
COc1ccccc1OP(=O)(Nc1ccc(C)cn1)Oc1ccccc1OC | inactive: 7.87%
O=C(NC(Sc1ccncn1)C(Cl)(Cl)Cl)c1ccccc1 (stereo not drawn) | inactive: -4.29%
Oc1ccccc1CNc1ccccn1 | inactive: 5.17%
CC(C)CC(=O)NC(Sc1ccc(Cl)cc1)C(Cl)(Cl)Cl (stereo not drawn) | inactive: -4.46%
Nc1cc(N)c2nonc2c1[N+](=O)[O-] | inactive: 1.52%
O=[N+]([O-])C1C(O)C(O)C([N+](=O)[O-])C(O)C1O (stereo not drawn) | inactive: -15.5%
CN(C)P(=O)(N(C)C)n1c(Nc2ccccc2)nnc1-c1ccccc1 | inactive: -26.6%
O=P(Nc1nc2ccc(Cl)cc2s1)(c1ccccc1)c1ccccc1 | inactive: 11.1%
CCCC1OP(N)(=O)OCC1CC (stereo not drawn) | inactive: -32.1%
O=C(O)c1ccccc1[As](=O)(O)O | inactive: -28.8%
CC(=O)Nc1ccc([As](=O)(O)O)cc1 | inactive: -6.05%
CN(C(=O)Cc1ccc(Cl)c(Cl)c1)[C@H]1CCCC[C@@H]1N1CCCC1 | inactive: 6.6%
Cc1ccc(NP(=O)(Oc2ccccc2F)Oc2ccccc2F)nc1 | inactive: 4.76%
CCOP(=O)(Nc1ccccc1)OCC | inactive: 5.85%
Cc1cc(SC(NC(=O)c2ccc(F)cc2)C(Cl)(Cl)Cl)ncn1 (stereo not drawn) | inactive: -17.7%
Nc1cccc2ccc([As](=O)(O)O)cc12 | inactive: -7.73%
CCN(N=Nc1nonc1N)c1nonc1N | inactive: 7.94%
Cc1ccc(NP(=O)(Oc2cccc(C)c2)Oc2cccc(C)c2)nc1 | inactive: 5.34%
c1ccc(-c2nn[nH]n2)c(-c2nn[nH]n2)c1 | inactive: 8.41%
O=C(NC1CCS(=O)(=O)C1)NP(=S)(Oc1ccccc1)Oc1ccccc1 (stereo not drawn) | inactive: 11.3%
CCNC(=S)/N=C(\N)N[N+](=O)[O-] | inactive: -2.39%
O=P1(N(CCCl)CCCl)OCCC2CCCCN21 (stereo not drawn) | inactive: -4.85%
CCC(=O)N1C2C3N(C(=O)CC)C1C1N(C(=O)CC)C(C(N1C(=O)CC)N3C(=O)CC)N2C(=O)CC | inactive: -27.8%
O=C(OC1CN2CCC1CC2)c1ccccc1 (stereo not drawn) | inactive: 1.79%
CC(=O)NC(SC(=S)N(CC(C)C)CC(C)C)C(Cl)(Cl)Cl (stereo not drawn) | inactive: -8.44%
Cc1ccc(OP(=O)(Nc2ccccn2)Oc2ccc(C)cc2)cc1 | inactive: 26%

Compound | inhibition
COC(=O)c1cc2c(s1)N=C(c1ccccc1)N(C)P2(=O)N1CCOCC1 (stereo not drawn) | inactive: 7.97%
CN(C)C(=O)Oc1noc2ccccc12 | inactive: 7.97%
Cc1ccccc1OP(=O)(Nc1ccccn1)Oc1ccccc1C | inactive: -6.21%
CC(NC(=O)COC(=O)C(O)(c1ccccc1)c1ccccc1)c1ccccc1 (stereo not drawn) | inactive: 21%
CCOc1ccc(C2=NCC(CBr)S2)cc1 (stereo not drawn) | inactive: -3.41%
O=P1(Nc2nc3ccc(Cl)cc3s2)COc2ccccc2O1 (stereo not drawn) | inactive: -24.1%
CC(C)(C)C(=O)NC(Sc1ccccc1)C(Cl)(Cl)Cl (stereo not drawn) | inactive: 7.04%
CCc1cc(O)c([N+](=O)[O-])c(C)c1[N+](=O)[O-] | inactive: -13.6%
C[C@@H]1C=CCP(=O)(Oc2ccccc2)O1 (stereo partly drawn) | inactive: 5.05%
C[C@H]1OP(=O)(Oc2ccccc2)C[C@@H]2O[C@@H]21 (stereo partly drawn) | inactive: 9.04%
Cc1ccccc1CN(C)C(=O)COC(=O)C(O)(c1ccccc1)c1ccccc1 | inactive: 3.42%
COC(=O)C1(C)COP(=O)(NCc2ccccc2)OC1 (stereo not drawn) | inactive: 5.49%
N#C/C(=C\c1ccc(N(CCBr)CCBr)cc1)C(N)=O | inactive: 29.1%
CC(=O)c1ccc(N2CC2c2ccncc2)cc1 (stereo not drawn) | inactive: -15.5%
CC(=O)Nc1ccc(Oc2c([N+](=O)[O-])cc([N+](=O)[O-])cc2[N+](=O)[O-])cc1 | inactive: -4.7%
CC(=O)Nc1ccc([As](=O)(O)O)c(O)c1 | inactive: 10.7%
O=P(Nc1nccs1)(c1ccccc1)c1ccccc1 | inactive: 7.03%
CC(C)C(=O)NC(Sc1ccccc1)C(Cl)(Cl)Cl (stereo not drawn) | inactive: -2.33%
c1nnnn1CCn1cnnn1 | inactive: 11%
CN(C)C1(CNC(=O)c2ccc(Cl)c(S(N)(=O)=O)c2)CCCCC1 | inactive: -24.4%
O=P(Nc1ccccn1)(c1ccc(Br)cc1)c1ccc(Br)cc1 | inactive: 23.1%
Nc1ccc(CCCCOc2ccccc2)cc1 | inactive: -47.7%
COc1ccc(N)c([N+](=O)[O-])c1[N+](=O)[O-] | inactive: 8.6%
C[C@H]1OP(=O)(Oc2ccccc2)[C@H](O)[C@H](O)[C@H]1N=[N+]=[N-] (stereo partly drawn) | inactive: 5.4%
O=P(Nc1nc2ccccc2s1)(c1ccccc1)c1ccccc1 | inactive: -51.4%
O=[As](O)(c1ccccc1)c1ccc(O)cc1 | inactive: 9.19%

Compound | inhibition
CC(=O)NC(SC(=S)N(C)C)C(Cl)(Cl)Cl (stereo not drawn) | inactive: 2.45%
O=[N+]([O-])c1ncn(CCn2cnc([N+](=O)[O-])n2)n1 | inactive: -3.89%
O=[N+]([O-])c1ccc(O)c(/C=N/Nc2ccc([N+](=O)[O-])cc2[N+](=O)[O-])c1 | inactive: 76.5%
O=C(OC1CN2CCC1CC2)c1cccc(Cl)c1 (stereo not drawn) | inactive: -7.75%
Nc1ccc([As](=O)(O)c2ccc([N+](=O)[O-])cc2)cc1 | inactive: -9.77%
C(Cc1nn[nH]n1)Cc1nn[nH]n1 | inactive: -19.5%
Cc1ccc(C(=O)OC2CN3CCC2CC3)cc1 (stereo not drawn) | inactive: -28.4%
CC1CCC(C(C)C)C(OP(=O)(Nc2ccccn2)c2ccccc2)C1 (stereo not drawn) | inactive: 4.65%
Cc1nn(-c2ccccc2)c2c1P(=O)(N1CCOCC1)N(C)C(c1ccccc1)=N2 (stereo not drawn) | inactive: -18.1%
CN(C)C1(CNC(=O)c2ccc(S(C)(=O)=O)cc2)CCCCC1 | inactive: 15.5%
CCCC1OP(=O)(Nc2ccccc2)OCC1CC (stereo not drawn) | inactive: -20.1%
O=C(/C=C/c1ccccc1)OC1CN2CCC1CC2 (stereo not drawn) | inactive: 0.344%
Cc1ccc(S(=O)(=O)N(CCCN)CCCc2c(C)nc(N)[nH]c2=O)cc1 | inactive: -16.9%
O=P1(Nc2ncccn2)COc2ccccc2OC1 | inactive: 17.5%
Nc1cccc([As](=O)(O)c2ccccc2)c1 | inactive: 5.57%
NS(=O)(=O)c1cccc(NC(=O)COC(=O)C(O)(c2ccccc2)c2ccccc2)c1 | inactive: 4.42%
O=P1(Nc2ccc(Br)cn2)COc2ccccc2OC1 | inactive: 7.7%
Cc1ccc(OCC(=O)OC2CN3CCC2CC3)cc1 (stereo not drawn) | inactive: -9.41%
O=[As](O)(c1cccs1)c1cccs1 | inactive: -25.1%
CCOP(=O)(NC(=NC(C)c1ccccc1)NC(C)c1ccccc1)OCC (stereo not drawn) | inactive: 10.3%
CCC1=CC2Cc3nc4ccc(Cl)cc4c(N)c3C(C1)C2 (stereo not drawn) | inactive: 15.6%
O=P1(Nc2ccccn2)COc2ccccc2OC1 | inactive: 17.6%
CN(CCCl)Cc1cc(Cl)c(NC2=NCCN2)c(Cl)c1 | inactive: 1.18%
CCOP(=O)(Nc1ccc(C)cn1)OCC | inactive: 0.584%
CC(C)(C)C(=O)NC(Sc1ncccn1)C(Cl)(Cl)Cl (stereo not drawn) | inactive: -34.2%
